Test results from patent US11471537B2, “Oligomer extended insulin-Fc conjugates” (Novo Nordisk A/S, priority 2017, dated 2022).

Test: PK studies: intravenous and subcutaneous administration to SD rats, insulin-Fc concentrations by immuno-assay
Assay type: in vivo
Conditions: for PK rat sc [T½ (h)] Mean Value: subcutaneous
Protocol: Insulin-Fc conjugates were tested in vivo by intravenous and subcutaneous administration to SD rats. Blood samples were collected and the insulin-Fc concentrations were measured by immuno-assay.

With “(A14A, A21G, A22(GQAP)18, A94G, A95Q, A96A, A97K^, A98P, B29R, desB30 human insulin)/(227A, 234A, 235K, 297E, 315Q, 384Q, des447 hIgG4-Fc(228-447))4-[bis[2-[(2-acetyl)amino]ethyl]amino]-4-oxo-butanoyl Conjugate [Example 5.25]” the “PK rat iv [T½ (h)] Mean Value” was 47.7 h and the “PK rat sc [T½ (h)] Mean Value” was 44.5 h.
In the case of “(A14E, A21G, A22(GQEP)19, A98K^, A99P, B25H, B29R, desB30 human insulin)/(227A, 234A, 235K hIgG4-Fc(228-447))4-[bis[2-[(2-acetyl)amino]ethyl]amino]-4-oxo-butanoyl Conjugate [Example 5.1]”, the “PK rat iv [T½ (h)] Mean Value” is reported as 32.6 h and the “PK rat sc [T½ (h)] Mean Value” is reported as 39.1 h.
With “A14E, A21G, A22(GQAPGQAPGQEP)6-GQAP, A98K^, A99P, B3Q, B25H, B29R, desB30 human insulin/(227A, 234A, 235K hIgG4-Fc(228-447))4-[bis[2-[(2-acetyl)amino]ethyl]amino]-4-oxo-butanoyl Conjugate [Example 5.5]” the “PK rat iv [T½ (h)] Mean Value” was 44.7 h and the “PK rat sc [T½ (h)] Mean Value” was 35.7 h.
In the case of “A14E, A21G, A22(GQAPGQAPGQEP)6-GQAP, A98K^, A99P, B3Q, B25H, B29R, desB30 human insulin/(227A, 234A, 235K, 297E, 315Q, 384Q, des447 hIgG4-Fc(228-447))4-[bis[2-[(2-acetyl)amino]ethyl]carbamoylamino]butanoyl Conjugate [Example 5.24]”, the “PK rat iv [T½ (h)] Mean Value” is reported as 50.6 h and the “PK rat sc [T½ (h)] Mean Value” is reported as 51.9 h.
With “A14E, A21G, A22(GQAPGQAPGQEP)6-GQAP, A98K^, A99P, B3Q, B25H, B29R, desB30 human insulin/(227A, 234A, 235K, 297E, 315Q, 3840, des447 hIgG4-Fc(228-447))4-[bis[2-[(2-acetyl)amino]ethyl]amino]-4-oxo-butanoyl Conjugate [Example 5.13]” the “PK rat iv [T½ (h)] Mean Value” was 53.3 h and the “PK rat sc [T½ (h)] Mean Value” was 43.4 h.
For “A14E, A21G, A22(GQAPGQEP)6, A70K^, A71P, B25H, B29R, desB30 human insulin/(227A, 234A, 235K hIgG4-Fc(228-447))4-[bis[2-[(2-acetyl)amino]ethyl]amino]-4-oxo-butanoyl Conjugate [Example 5.9]”, the “PK rat iv [T½ (h)] Mean Value” was 36.3 h and the “PK rat sc [T½ (h)] Mean Value” was 31.7 h.
For “A14E, A21G, A22(GQEP)6, A46K^, A47P, B25H, B29R, desB30 human insulin/(227A, 234A, 235K hIgG4-Fc(228-447))4-[bis[2-[(2-acetyl)amino]ethyl]amino]-4-oxo-butanoyl Conjugate [Example 5.7]”, the “PK rat iv [T½ (h)] Mean Value” was 36.5 h and the “PK rat sc [T½ (h)] Mean Value” was 32.3 h.
For “A14E, A21G, A22(GQEP)12, A70K^, A71P, B25H, B29R, desB30 human insulin/(227A, 234A, 235K hIgG4-Fc(228-447))4-[bis[2-[(2-acetyl)amino]ethyl]amino]-4-oxo-butanoyl Conjugate [Example 5.8]”, the “PK rat iv [T½ (h)] Mean Value” was 36.3 h and the “PK rat sc [T½ (h)] Mean Value” was 36.6 h.
In the case of “A14E, A21G, A22(GQEP)19, A98K^, A99P, B3Q, B25H, B29R, desB30 human insulin/(227A, 234A, 235K hIgG4-Fc(228-447))4-[bis[2-[(2-acetyl)amino]ethyl]amino]-4-oxo-butanoyl Conjugate [Example 5.6]”, the “PK rat iv [T½ (h)] Mean Value” is reported as 31.1 h and the “PK rat sc [T½ (h)] Mean Value” is reported as 30.1 h.
For “A14E, A21G, A22(GQEP)19, A98K^, A99P, B3Q, B25H, B29R, desB30 human insulin/(227A, 234A, 235K, 297E, 315Q, 384Q, des447 hIgG4-Fc(228-447))4-[bis[2-[(2-acetyl)amino]ethyl]amino]-4-oxo-butanoyl Conjugate [Example 5.2]”, the “PK rat iv [T½ (h)] Mean Value” was 42.8 h and the “PK rat sc [T½ (h)] Mean Value” was 44.0 h.
With “A14E, A21Q, A22(G)18, A40K^, B25H, B29R, desB30 human insulin/(227A, 234A, 235K hIgG4-Fc(228-447))4-[bis[2-[(2-acetyl)amino]ethyl]amino]-4-oxo-butanoyl Conjugate [Example 5.21]” the “PK rat iv [T½ (h)] Mean Value” was 43.2 h and the “PK rat sc [T½ (h)] Mean Value” was 38.8 h.
